## Measured affinities in a library of Ab-14 light chain variants

Source: Li et al. 2023 (doi:10.1038/s41467-023-39022-2), MIT Lincoln Laboratory and A-Alpha Bio; data file from the FLAb repository.

Target: peptide PDVDLGDISGINAS, taken from heptad repeat 2 (HR2) of SARS-CoV-2 spike.

The variants keep the heavy chain, the linker and the frameworks of Ab-14 (scFv order VH, a (GGGGS)3 linker, VL).
VH: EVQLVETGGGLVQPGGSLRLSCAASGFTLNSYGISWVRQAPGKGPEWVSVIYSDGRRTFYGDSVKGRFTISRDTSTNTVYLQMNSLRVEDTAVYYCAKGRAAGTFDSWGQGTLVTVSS
VL: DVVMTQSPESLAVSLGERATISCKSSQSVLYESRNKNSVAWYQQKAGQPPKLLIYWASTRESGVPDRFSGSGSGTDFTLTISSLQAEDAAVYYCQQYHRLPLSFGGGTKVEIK

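The parent was found by panning a naive human phage display library on the peptide. Designed CDR sequences, proposed from the first random library and measured here. Their group label is 14L_En_Gen (En: ensemble of fine-tuned language models; Gen: genetic algorithm). Affinity was read by AlphaSeq, a pooled yeast mating assay with surface-displayed partners. Mating (16 h, 30 °C) was followed by selection of diploids and sequencing of their barcodes. The ratio of observed to expected reads was calibrated, replicate by replicate, on BCL2-family standards whose Kd was known from biolayer interferometry. Mating was done six times.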

Each variant is given by its three light chain CDRs, as the data file delimits them; those of the parent are KSSQSVLYESRNKNSVA, WASTRES, QQYHRLPLS.
The read-out is the apparent dissociation constant on a log10 scale (nM): the lower, the stronger.
A pair that was not seen in that replicate is written "nd"; this usually means weak binding, but a binder can also be missed.
Empty control strains, which show no peptide, gave a signal in 4% of pairings with all light chain designs; the median was 2.64 and 95% of these signals were weaker than 1.59. No background was subtracted. Also given: how often the same scFv was detected with the empty control strains, with their mean in brackets.
Values of this round are not directly comparable with the first-round values of the same sequences.
In the paper, a design with two or fewer of six values counts as a poor binder.
Of ten entries with the parent sequence, four were seen in most replicates (averages 0.34 to 2.37), three in one and three in none, so single entries are noisy.

| # | CDR-L1 | CDR-L2 | CDR-L3 | log10 Kd, replicates | empty controls |
|---|---|---|---|---|---|
| 1 | KLSEFMKGLMMRTDSIA | DNNTRGS | QQYDRLPLS | 1.85 / nd / 0.95 / 1.22 / nd / nd | 1/18 (2.92) |
| 2 | KISQMVRVGSTHSNSIA | EEETRAD | QQYHRLPLS | 0.57 / 0.67 / 0.47 / 0.60 / 0.29 / 0.50 | 1/18 (2.58) |
| 3 | MFSQMWALGSKVSNSVA | QASTRFN | QQYHRLPLM | 0.59 / 0.34 / 0.00 / 0.39 / 0.31 / 0.05 | 1/18 (1.74) |
| 4 | TIGAQLMYGTRNRSNVA | EVSQRLN | QQYDRLPLL | 1.63 / 2.28 / 1.63 / 1.46 / 1.01 / 1.50 | 1/18 (2.83) |
| 5 | KLVQFMNRGTHHTSNIA | DAQNRSD | QQYARLPLA | 0.46 / 0.62 / 0.52 / 0.73 / 0.63 / 0.48 | 2/18 (2.56) |
| 6 | MISQLMNMGQFAINSVA | QASLRCN | QQYDRLPLT | 1.66 / 2.34 / 0.99 / 1.25 / 2.10 / 2.32 | 1/18 (2.48) |
| 7 | MMSQVTGSGTRHRNNVA | QTSMRES | QQYDRLPLI | 1.56 / 0.74 / 0.84 / 0.48 / 0.53 / 0.93 | 0/18 |
| 8 | QIYQAMHTLMQVKNNIA | DVTNRNE | QQYHRLPLS | 1.39 / 2.35 / nd / 1.10 / 1.31 / nd | 0/18 |
| 9 | MISQVMNTLTRQGNNVA | DLAEREE | QQYFRLPLS | 1.24 / nd / 0.81 / nd / 1.85 / 2.59 | 2/18 (2.44) |
| 10 | TIADVMGHISKNTNNVA | DMDTRGE | QQYNRLPLS | -0.47 / -0.08 / -0.07 / -0.39 / -0.11 / -0.16 | 2/18 (1.89) |
| 11 | IVSQLMLWGLHAKNSIA | EAQMRLN | QQYDRLPLE | nd / nd / nd / nd / nd / nd | 0/18 |
| 12 | MISQLFNMGTFAINSVA | QASIRNE | QQYDRLPLM | 1.14 / 0.90 / nd / 1.50 / 1.20 / 2.23 | 1/18 (2.14) |
| 13 | SISGFMKSLAAHHNSVA | DMTNRED | QQYDRLPLS | 0.51 / 0.29 / 0.34 / -0.12 / 0.01 / 0.18 | 1/18 (1.54) |
| 14 | NLSAMTAHESVKEKNIA | ERSTREQ | QQYNRLPLS | 0.70 / 0.41 / 0.43 / 0.54 / 0.94 / 1.20 | 0/18 |
| 15 | KIGMTLNQLMHKKNNVA | DLVTREN | QQYHRLPLS | 0.80 / 0.00 / 0.68 / 0.64 / 0.52 / 0.47 | 0/18 |
| 16 | MVSQLMLWGLHAKNSIA | EAETRLN | QQYDRLPLF | nd / 0.43 / nd / 1.11 / 2.21 / nd | 0/18 |
| 17 | MLGDVGFGLTRKEDSVA | DNDTRES | QQYDRLPLS | 1.62 / 1.30 / 1.28 / 1.35 / 1.38 / 1.79 | 1/18 (3.84) |
| 18 | MISQLMNLGQFAINSVA | QASIRNS | QQYDRLPLA | 2.24 / nd / 2.23 / 1.84 / 3.17 / 1.43 | 3/18 (2.47) |
| 19 | MISNVMNTLTRAGNNVA | DLQEREN | QQYFRLPLS | 1.60 / 1.33 / 1.15 / 1.57 / 0.95 / 1.10 | 0/18 |
| 20 | SLGLVTMLEYAERNNVA | NNSTREE | QQYDRLPLS | 2.57 / 2.03 / 1.26 / 1.60 / 1.22 / 1.18 | 0/18 |
| 21 | MVNQIMDHLSKQTNNVA | ETTTREE | QQYDRLPLS | 0.50 / 0.67 / 0.69 / 0.77 / 0.71 / 0.89 | 0/18 |
| 22 | NIYQAMHTLMQVKNNIA | DVTNRNQ | QQYHRLPLS | 0.58 / 0.25 / 0.18 / 0.19 / 0.34 / 0.49 | 1/18 (3.23) |
| 23 | MISQIYNMGQFAINSVA | QASTRNA | QQYDRLPLM | 2.73 / 1.61 / 1.03 / 1.40 / 1.16 / 1.62 | 2/18 (3.21) |
| 24 | SISGFMKTLSSHKNNVA | DMTNRED | QQYDRLPLS | 0.26 / 0.48 / 0.25 / 0.05 / 0.53 / 0.64 | 1/18 (1.81) |
| 25 | MVSQLMLWGLHAKNSIA | HAQMRLN | QQYDRLPLE | nd / nd / nd / nd / nd / nd | 0/18 |
| 26 | MISQLMNMGQFAINSVA | QASMRNQ | QQYDRLPLI | nd / nd / nd / 2.17 / nd / nd | 0/18 |
| 27 | MISQLMNMGQFAINSVA | QASIRNQ | QQYDRLPLA | 0.49 / 0.53 / 0.36 / 0.48 / 1.20 / 2.83 | 0/18 |
| 28 | KIGMTLNQLMHKKNNVA | DLVMREN | QQYERLPLS | -0.17 / -0.60 / 0.22 / -0.06 / -0.28 / 0.48 | 1/18 (0.88) |
| 29 | KVSEFMKGLMMRTDSIA | DNVTRQN | QQYDRLPLS | 3.07 / 2.14 / 1.46 / 1.83 / 2.28 / 2.13 | 0/18 |
| 30 | TLYGLSNSMSINKNSVA | EMTTREK | QQYDRLPLV | 2.03 / 2.09 / 1.68 / 1.92 / 3.30 / 1.58 | 0/18 |
| 31 | KVSEFMRGLMQRKDSIA | DNVTRGN | QQYDRLPLS | nd / 1.29 / nd / 2.18 / 2.72 / nd | 1/18 (1.86) |
| 32 | KLSMVTGHMSLAKNNVA | EMETREK | QQYNRLPLS | 0.39 / 0.24 / 0.43 / 0.19 / 0.57 / 0.28 | 0/18 |
| 33 | QISQLMNLSMHQVNNVA | QMTTREK | QQYDRLPLS | 0.86 / 0.84 / 0.67 / 1.21 / 0.69 / 0.32 | 0/18 |
| 34 | MISQLANMGQFAINSVA | QASLRCN | QQYDRLPLL | nd / 1.24 / nd / nd / nd / nd | 0/18 |
| 35 | KLSMTTEMEHVNRNSVA | ELVTRMS | QQYNRLPLS | 0.90 / 1.21 / 0.68 / 0.71 / 0.63 / 0.91 | 1/18 (1.81) |
| 36 | MISQLMNLGQFAINSVA | QAEIRNN | QQYDRLPLV | nd / nd / nd / nd / nd / nd | 0/18 |
| 37 | MFSQMTGLGMKAQNSVA | QASTRFE | QQYHRLPLI | 0.19 / 0.36 / 0.24 / 0.25 / 0.55 / 0.41 | 0/18 |
| 38 | HISSLTLQGMRQVNSVA | QMTTREN | QQYDRLPLA | 0.82 / -0.05 / -0.22 / 0.57 / 0.58 / 0.02 | 1/18 (1.47) |
| 39 | KISQMVRVGATHNNSIA | EEQTRAK | QQYHRLPLS | nd / 2.05 / 2.19 / nd / 2.54 / nd | 0/18 |
| 40 | MISQLFNMGQFAINSVA | QASLRNE | QQYDRLPLA | 1.38 / 1.44 / 3.16 / 2.19 / 1.75 / nd | 0/18 |
| 41 | IVSQLMLWGMHVKNSIA | EAVTRLN | QQYDRLPLM | nd / 1.65 / nd / nd / nd / 1.45 | 1/18 (2.05) |
| 42 | QISMILNFESLKGSNVA | QMETRVN | QQYDRLPLS | 0.22 / 0.29 / 0.62 / 0.59 / 0.39 / 0.52 | 1/18 (2.11) |
| 43 | KISESMNFAQFNKQSIA | EVSTRSK | QSYNRLPLS | 1.71 / 1.79 / 2.13 / 1.28 / 1.58 / 2.21 | 0/18 |
| 44 | IVSQLMLWGYHQKNSIA | EAETRLN | QQYERLPLF | nd / 2.11 / nd / nd / 2.66 / nd | 1/18 (1.69) |

The opening 4 entries, copied out:

| CDR-L1 | CDR-L2 | CDR-L3 | log10 Kd, replicates | empty controls |
|---|---|---|---|---|
| KLSEFMKGLMMRTDSIA | DNNTRGS | QQYDRLPLS | 1.85 / nd / 0.95 / 1.22 / nd / nd | 1/18 (2.92) |
| KISQMVRVGSTHSNSIA | EEETRAD | QQYHRLPLS | 0.57 / 0.67 / 0.47 / 0.60 / 0.29 / 0.50 | 1/18 (2.58) |
| MFSQMWALGSKVSNSVA | QASTRFN | QQYHRLPLM | 0.59 / 0.34 / 0.00 / 0.39 / 0.31 / 0.05 | 1/18 (1.74) |
| TIGAQLMYGTRNRSNVA | EVSQRLN | QQYDRLPLL | 1.63 / 2.28 / 1.63 / 1.46 / 1.01 / 1.50 | 1/18 (2.83) |